These results are taken from ChEMBL document CHEMBL5316308, “BET-HDAC Dual Inhibitors for Combinational Treatment of Breast Cancer and Concurrent Candidiasis” (J Med Chem, 2023).

The target of the assay is T1, Histone deacetylase 8 (Homo sapiens, UniProt Q9BY41).
T1 sequence (Q9BY41 whole entry): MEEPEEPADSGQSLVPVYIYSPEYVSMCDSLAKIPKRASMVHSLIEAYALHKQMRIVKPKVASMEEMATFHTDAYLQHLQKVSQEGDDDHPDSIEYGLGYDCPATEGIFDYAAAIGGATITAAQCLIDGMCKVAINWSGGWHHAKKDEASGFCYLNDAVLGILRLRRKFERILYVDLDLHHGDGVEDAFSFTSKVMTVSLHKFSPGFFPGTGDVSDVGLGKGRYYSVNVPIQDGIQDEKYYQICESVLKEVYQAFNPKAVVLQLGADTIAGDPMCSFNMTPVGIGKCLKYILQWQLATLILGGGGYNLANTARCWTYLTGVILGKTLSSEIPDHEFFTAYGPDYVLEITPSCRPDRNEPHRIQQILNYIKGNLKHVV
The assay is described as follows: Inhibition of C-terminal His-tagged full-length recombinant human HDAC8 expressed in baculovirus infected Sf9 insect cells using Ac-Leu-Gly-Lys(Tfa)-AMC as substrate incubated for 30 mins by fluorescence based assay.

Turning to `O=C(CCCCCCC(=O)Nc1ccccc1)NO` [VORINOSTAT], the IC50 (in general, the concentration that gives 50% inhibition) came to 3.82 µM.
